The values below come from publication PMC9598883, “An Optimized Workflow for the Discovery of New Antimicrobial Compounds Targeting Bacterial RNA Polymerase Complex Formation” (Antibiotics, 2022).

Sequences of proteins named here, by UniProt entry; tags and fusion partners are left off. Residues count along the entry.
UniProt P0A8T7, 1-334 limits assumed: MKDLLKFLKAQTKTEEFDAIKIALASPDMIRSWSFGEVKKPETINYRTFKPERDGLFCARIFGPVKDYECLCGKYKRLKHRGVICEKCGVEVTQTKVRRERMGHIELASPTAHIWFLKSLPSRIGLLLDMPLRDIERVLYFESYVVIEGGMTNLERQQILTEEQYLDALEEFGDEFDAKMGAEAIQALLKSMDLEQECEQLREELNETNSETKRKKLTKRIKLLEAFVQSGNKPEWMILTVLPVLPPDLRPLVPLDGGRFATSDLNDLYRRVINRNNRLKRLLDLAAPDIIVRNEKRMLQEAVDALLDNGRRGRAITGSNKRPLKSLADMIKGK
UniProt P0A8T7, whole entry: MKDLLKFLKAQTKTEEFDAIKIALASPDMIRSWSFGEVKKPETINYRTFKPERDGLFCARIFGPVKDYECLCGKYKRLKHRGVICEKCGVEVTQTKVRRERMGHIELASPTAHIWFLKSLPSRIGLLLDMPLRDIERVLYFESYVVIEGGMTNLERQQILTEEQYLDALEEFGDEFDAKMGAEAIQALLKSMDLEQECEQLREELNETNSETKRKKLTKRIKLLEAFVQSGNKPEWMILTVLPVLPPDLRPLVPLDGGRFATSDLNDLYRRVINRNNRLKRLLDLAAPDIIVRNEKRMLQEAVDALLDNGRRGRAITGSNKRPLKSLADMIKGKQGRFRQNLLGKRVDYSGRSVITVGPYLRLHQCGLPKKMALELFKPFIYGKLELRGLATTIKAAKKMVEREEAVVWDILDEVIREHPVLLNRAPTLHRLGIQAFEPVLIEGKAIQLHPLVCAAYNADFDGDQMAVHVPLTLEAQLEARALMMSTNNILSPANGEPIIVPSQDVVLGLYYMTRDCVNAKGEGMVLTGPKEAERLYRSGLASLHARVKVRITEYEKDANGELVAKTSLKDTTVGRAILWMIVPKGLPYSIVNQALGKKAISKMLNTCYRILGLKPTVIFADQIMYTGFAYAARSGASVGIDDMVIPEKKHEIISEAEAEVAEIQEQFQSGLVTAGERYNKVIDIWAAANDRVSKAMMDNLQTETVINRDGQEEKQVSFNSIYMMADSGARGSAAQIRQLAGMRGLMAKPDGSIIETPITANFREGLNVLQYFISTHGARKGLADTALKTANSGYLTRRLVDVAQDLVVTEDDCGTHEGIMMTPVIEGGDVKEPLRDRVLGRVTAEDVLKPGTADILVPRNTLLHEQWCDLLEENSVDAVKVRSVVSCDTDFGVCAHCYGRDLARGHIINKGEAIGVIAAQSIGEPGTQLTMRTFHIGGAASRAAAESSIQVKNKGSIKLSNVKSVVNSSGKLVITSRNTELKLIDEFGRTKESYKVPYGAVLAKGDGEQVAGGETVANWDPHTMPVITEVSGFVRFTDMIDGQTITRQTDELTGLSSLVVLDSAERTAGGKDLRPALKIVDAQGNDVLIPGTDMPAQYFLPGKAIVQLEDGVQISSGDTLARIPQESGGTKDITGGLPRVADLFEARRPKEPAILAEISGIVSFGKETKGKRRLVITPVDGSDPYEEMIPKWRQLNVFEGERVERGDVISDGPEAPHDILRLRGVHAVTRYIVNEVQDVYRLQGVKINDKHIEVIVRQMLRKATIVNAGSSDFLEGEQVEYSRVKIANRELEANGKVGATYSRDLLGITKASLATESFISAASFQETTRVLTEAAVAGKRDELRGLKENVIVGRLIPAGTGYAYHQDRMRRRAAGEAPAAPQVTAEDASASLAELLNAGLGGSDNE
UniProt P0A7Z4, whole entry partner: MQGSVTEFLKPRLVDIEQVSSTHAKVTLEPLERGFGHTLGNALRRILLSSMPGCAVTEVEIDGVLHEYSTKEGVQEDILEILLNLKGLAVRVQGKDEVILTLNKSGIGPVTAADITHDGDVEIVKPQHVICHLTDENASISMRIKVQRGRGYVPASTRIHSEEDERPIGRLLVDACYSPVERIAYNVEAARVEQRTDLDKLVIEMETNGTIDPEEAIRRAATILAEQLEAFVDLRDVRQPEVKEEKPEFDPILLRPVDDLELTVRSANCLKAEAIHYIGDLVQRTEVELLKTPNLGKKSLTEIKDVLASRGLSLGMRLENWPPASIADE
UniProt P0A800, whole entry partner: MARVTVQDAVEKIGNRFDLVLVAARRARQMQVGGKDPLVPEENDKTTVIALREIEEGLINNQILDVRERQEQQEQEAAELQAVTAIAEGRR
UniProt P0A8V2, whole entry partner: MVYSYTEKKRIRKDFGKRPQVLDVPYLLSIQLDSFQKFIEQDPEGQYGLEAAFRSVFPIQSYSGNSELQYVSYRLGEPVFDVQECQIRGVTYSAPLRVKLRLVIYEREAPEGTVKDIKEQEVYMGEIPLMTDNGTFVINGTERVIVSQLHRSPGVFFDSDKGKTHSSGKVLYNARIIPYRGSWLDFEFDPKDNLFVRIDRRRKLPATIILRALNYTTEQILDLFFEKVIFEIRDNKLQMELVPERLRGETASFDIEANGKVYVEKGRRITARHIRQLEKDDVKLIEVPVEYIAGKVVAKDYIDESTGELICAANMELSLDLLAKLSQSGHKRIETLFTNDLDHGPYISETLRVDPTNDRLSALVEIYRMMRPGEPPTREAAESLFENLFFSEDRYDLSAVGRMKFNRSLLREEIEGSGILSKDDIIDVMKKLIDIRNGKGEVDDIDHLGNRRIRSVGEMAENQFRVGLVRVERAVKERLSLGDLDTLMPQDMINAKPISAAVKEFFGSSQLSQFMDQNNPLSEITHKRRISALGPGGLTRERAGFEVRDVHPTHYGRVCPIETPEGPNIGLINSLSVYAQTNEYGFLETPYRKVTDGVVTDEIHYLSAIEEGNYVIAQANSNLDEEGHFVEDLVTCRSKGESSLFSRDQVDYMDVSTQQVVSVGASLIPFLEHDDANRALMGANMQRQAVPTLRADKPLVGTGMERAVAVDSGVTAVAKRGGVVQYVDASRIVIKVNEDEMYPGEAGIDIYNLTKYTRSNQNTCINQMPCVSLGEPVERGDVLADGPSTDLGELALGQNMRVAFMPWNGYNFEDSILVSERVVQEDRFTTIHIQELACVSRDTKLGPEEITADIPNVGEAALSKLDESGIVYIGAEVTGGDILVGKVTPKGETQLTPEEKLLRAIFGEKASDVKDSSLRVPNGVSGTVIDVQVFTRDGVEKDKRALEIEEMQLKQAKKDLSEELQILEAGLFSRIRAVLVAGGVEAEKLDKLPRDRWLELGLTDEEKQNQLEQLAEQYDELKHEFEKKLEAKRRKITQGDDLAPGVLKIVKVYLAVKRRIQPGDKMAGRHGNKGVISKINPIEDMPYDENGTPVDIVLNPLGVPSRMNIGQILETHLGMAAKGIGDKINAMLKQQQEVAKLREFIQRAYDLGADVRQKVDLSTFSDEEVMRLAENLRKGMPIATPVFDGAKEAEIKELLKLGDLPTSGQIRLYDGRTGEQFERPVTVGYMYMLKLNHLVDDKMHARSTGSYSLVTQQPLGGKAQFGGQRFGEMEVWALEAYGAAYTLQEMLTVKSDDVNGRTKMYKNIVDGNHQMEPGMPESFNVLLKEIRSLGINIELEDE

Converted amounts (≈) assume the structure as drawn. “And” between values parts separate entries of the source, which are not always exact repeats. Equal values may be shown once. Read-outs that look alike come from different tables or passages of the source.

One data set concerns E. coli DH10T1R. Kind of data set: MIC assay, E. coli. In kind it is cell-based, Escherichia coli. Particulars: in the presence of PMBN (2 μg/mL).
The test system of data set [1] is B. subtilis (WB800N strain). Kind of data set: Bacterial growth inhibition assay, B. subtilis. In kind it is cell-based, Bacillus subtilis.
In a further data set the test system is E. coli (DH10T1R strain). As to the kind of experiment: Bacterial growth inhibition assay, E. coli. It counts as cell-based, Escherichia coli. Particulars: for Growth Inhibition at 100 μM (8 h) E. coli: in the presence of PMBN (2 μg/mL).
Data set [2] has as its system Saccharomyces cerevisiae (W303). As to the kind of experiment: Yeast growth inhibition assay. Particulars: wild-type W303. In kind it is cell-based.
A further data set deals with B. subtilis WB800N. Kind of data set: MIC assay, B. subtilis. It counts as cell-based, Bacillus subtilis.
The test system of a further data set is RNAP. The note with it: cited from earlier work.
For data set [3], the target named is T1, β′–σ^70 PPI (GST-β′ aa 1–334 / His-tagged σ^70) (Escherichia coli, UniProt P0A8T7). The note with it: cited from earlier work.
The target of data set [4] is E. coli RNAPc with recombinant σ^70 (holoenzyme) (Escherichia coli, UniProt P0A8T7). As to the kind of experiment: Fluorescence-detected single-round in vitro transcription assay. It counts as biochemical. The note with it: read-out: In vitro transcription IC50, fluorescence-based assay.
Data set [5] deals with T1, β′–σ^70 PPI (GST-β′ aa 1–334 / His-tagged σ^70). Kind of data set: Competitive ELISA of β′–σ^70 interaction. It counts as binding, E. coli. Particulars: for β′–σ70 binding inhibition, ELISA 100 μM (percentage inhibition ± SD): fixed concentration of 100 μM; for IC50: read-out: Binding Inhibition IC50 ± SD. (ELISA stands for enzyme-linked immunosorbent assay.)

Regarding `N#Cc1cc2cnccc2c2[nH]c3ncccc3c12`, the “MIC E. coli” value with E. coli DH10T1R was found to be 1.56 µM. Moreover, in data set [1], the “Growth Inhibition at 100 μM (8 h) B. subtilis” value turned out to be 19%. Besides, the “E. coli growth inhibition at lowest concentration” value in the data set on E. coli (DH10T1R strain) (10 µM, 8 h observation, with PMBN) is listed as “completely inhibited”. Further, the “Growth Inhibition at 100 μM (8 h) E. coli” value in the data set on E. coli (DH10T1R strain) was determined as 92%. In addition, the “Growth Inhibition at 100 μM (8 h) S. cerevisiae” value in data set [2] amounted to 1%.
A word on the IC50: it is the midpoint of a concentration-inhibition curve. Turning to `O=C(Nc1ccc(Cl)cc1)Nc1c(-c2cccnc2)[nH]c2ccc(F)cc12`, in the data set on B. subtilis WB800N, the “MIC B. subtilis” value stood at 50 µM (≈ 19 µg/mL). For the same compound, in the data set on E. coli DH10T1R, the “MIC E. coli” value is 25 µM. The “Growth Inhibition at 100 μM (8 h) B. subtilis” value in data set [1] worked out at 73%. The “Growth Inhibition at 100 μM (8 h) E. coli” value with E. coli (DH10T1R strain) turned out to be 91%. Besides, the IC50 with RNAP was 28.6 µM and 28 µM; in data set [3] it was 8.09 µM; in data set [4], 27 µM. Moreover, the “Growth Inhibition at 100 μM (8 h) S. cerevisiae” value in [2] came out at 0%.
For the compound `CCN(CC)CCSCC(=O)c1ccc2[nH]c3ncc(Cl)cc3c2c1`, the “MIC B. subtilis” value in the data set on B. subtilis WB800N came to 100 µM (≈ 37.6 µg/mL). The “MIC E. coli” value in the data set with E. coli DH10T1R amounted to 12.5 µM. Moreover, the “Growth Inhibition at 100 μM (8 h) B. subtilis” value in data set [1] is 15%. Also, in the data set with E. coli (DH10T1R strain) (100 µM), the “E. coli growth inhibition over time” value is recorded as “only partially effective”. Further, in the data set with E. coli (DH10T1R strain), the “Growth Inhibition at 100 μM (8 h) E. coli” value is 30%. The “Growth Inhibition at 100 μM (8 h) S. cerevisiae” value in [2] amounted to 0%. In [5] (dose–response ELISA), the “Fold less potent than reference compound 4 (binding inhibition IC50)” value came to 10 fold and the half-maximal inhibitory concentration (IC50) was 80 µM. Moreover, the “β′–σ70 binding inhibition, ELISA 100 μM (percentage inhibition ± SD)” value in [5] was 55±1%.
Regarding `CC(=O)Oc1ccc2c(OC(C)=O)c(-c3ccc(F)cc3)oc2c1`, the “MIC B. subtilis” value with B. subtilis WB800N was found to be 50 µM (≈ 16.4 µg/mL). The “MIC E. coli” value in the data set with E. coli DH10T1R is 50 µM. Also, the “Growth Inhibition at 100 μM (8 h) B. subtilis” value in data set [1] amounted to 40%. The “B. subtilis growth inhibition over time” value in data set [1] (only at 100 µM) is “significantly inhibited”. In the data set with E. coli (DH10T1R strain), the “Growth Inhibition at 100 μM (8 h) E. coli” value amounted to 29%. The “Growth Inhibition at 100 μM (8 h) S. cerevisiae” value in data set [2] came out at 0%. The “β′–σ70 binding inhibition, ELISA 100 μM (percentage inhibition ± SD)” value in data set [5] is 100%. The IC50 in [5] (dose–response ELISA) was determined as 16.4 µM.
